Source: patent US11306124B2, “Agonist agents of CD47 inducing programmed cell death and their use in the treatments of diseases associated with defects in programmed cell death” (SORBONNE UNIVERSITE, priority 2016, dated 2022)

Test system: HCT-116 cells
Assay type: cell-based
Details: human, 2 h
Method: 2.2.2. Cell Death Analysis by Flow Cytometry
To detect possible apoptotic processes, cells were seeded in 35 mm dishes and cultured in media containing each tested cyclic peptide for 2 hours following procedure A or B.
Procedure B: Peptides were incubated for 2 hours on HCT-116 cells. Superkiller Trail (ALX-201-115C-010) was used as a positive pro-apoptotic control. Cells were analyzed by cytofluorometry using FITC Annexin V apoptosis detection kit with 7-AAD from BIOLEGEND (BLE640922).

## CSCC[C@@H]1NC(=O)[C@@H](C(C)C)NC(=O)[C@H](C(C)C)NC(=O)[C@H](Cc2ccc(O)cc2)NC(=O)[C@H](Cc2ccccc2)NC(=O)[C@H](CCCNC(=N)N)NC(=O)[C@H](CO)NC(=O)[C@@H]2CCCN2C(=O)[C@H]2CCCN2C(=O)[C@H](CCC(N)=O)NC(=O)[C@H](Cc2ccc(O)cc2)NC(=O)CNC(=O)[C@H](Cc2ccccc2)NC(=O)[C@H](C(C)C)NC(=O)[C@H](Cc2ccccc2)NC(=O)CNC(=O)[C@H](C)NC(=O)[C@@H](Cc2ccc(O)cc2)NC(=O)[C@H](CCCCN)NC(=O)[C@H](Cc2c[nH]c3ccccc23)NC1=O [PKTD9, —Y—A—G—F—V—F—G—Y—Q—p—P—S—R—F—Y—V—V—M—W—K—]
12.5 μM
  Viable, Mean (%): 82.19%
25 μM
  Viable, Mean (%): 79.38%
50 μM
  Viable, Mean (%): 70.52%

Like-named read-outs stand apart in the source and are kept apart here.
